The target in this experiment is Vascular endothelial growth factor receptor 3 (Homo sapiens, UniProt P35916).

By UniProt entry, the sequences of proteins in these tests, tags left out.
UniProt P35916, whole entry: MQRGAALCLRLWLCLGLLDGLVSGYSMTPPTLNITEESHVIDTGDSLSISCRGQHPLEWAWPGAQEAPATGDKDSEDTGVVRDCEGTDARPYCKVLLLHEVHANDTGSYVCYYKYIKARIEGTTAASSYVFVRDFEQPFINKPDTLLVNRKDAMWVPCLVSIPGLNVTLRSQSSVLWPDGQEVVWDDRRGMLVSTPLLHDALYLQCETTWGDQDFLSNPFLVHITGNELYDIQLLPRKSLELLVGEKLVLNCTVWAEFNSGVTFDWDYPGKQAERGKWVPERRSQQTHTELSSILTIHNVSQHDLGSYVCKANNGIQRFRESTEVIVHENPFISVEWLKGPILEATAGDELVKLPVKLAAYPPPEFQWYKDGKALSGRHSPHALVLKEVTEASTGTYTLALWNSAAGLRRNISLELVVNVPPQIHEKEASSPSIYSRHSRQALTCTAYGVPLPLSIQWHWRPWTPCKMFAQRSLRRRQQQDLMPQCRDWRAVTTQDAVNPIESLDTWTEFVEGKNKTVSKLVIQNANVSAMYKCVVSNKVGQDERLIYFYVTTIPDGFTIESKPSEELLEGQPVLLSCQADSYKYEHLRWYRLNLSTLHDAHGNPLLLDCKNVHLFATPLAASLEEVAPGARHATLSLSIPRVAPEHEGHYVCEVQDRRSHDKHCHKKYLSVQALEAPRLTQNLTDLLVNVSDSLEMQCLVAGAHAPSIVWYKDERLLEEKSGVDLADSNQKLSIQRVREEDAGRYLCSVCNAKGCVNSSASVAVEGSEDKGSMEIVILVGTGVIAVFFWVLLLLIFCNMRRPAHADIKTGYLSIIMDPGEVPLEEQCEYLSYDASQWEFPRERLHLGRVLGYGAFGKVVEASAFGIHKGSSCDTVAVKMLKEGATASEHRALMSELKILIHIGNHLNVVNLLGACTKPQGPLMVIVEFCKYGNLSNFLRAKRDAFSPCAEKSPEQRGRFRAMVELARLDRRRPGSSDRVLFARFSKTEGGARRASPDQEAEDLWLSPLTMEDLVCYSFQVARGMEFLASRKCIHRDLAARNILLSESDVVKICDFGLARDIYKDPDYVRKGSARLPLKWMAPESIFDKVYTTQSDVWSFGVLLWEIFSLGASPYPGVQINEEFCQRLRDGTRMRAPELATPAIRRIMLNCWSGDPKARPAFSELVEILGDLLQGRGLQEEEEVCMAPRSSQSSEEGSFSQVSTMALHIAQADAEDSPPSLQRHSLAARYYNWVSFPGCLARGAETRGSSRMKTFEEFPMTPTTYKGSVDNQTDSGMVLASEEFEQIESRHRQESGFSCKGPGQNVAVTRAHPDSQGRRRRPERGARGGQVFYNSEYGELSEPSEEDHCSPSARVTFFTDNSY

The structures appear in SMILES notation.

As usually defined, the IC50 is the concentration that gives 50% inhibition. For the compound `COc1cc2nccc(Oc3ccc(NC(=O)Nc4cc(C)on4)c(Cl)c3)c2cc1OC` [TIVOZANIB], it took 3.11 nM to reach half-maximal inhibition (IC50).

The record behind these values is ChEMBL document CHEMBL3425418, “Design, synthesis and biological evaluation of deuterated Tivozanib for improving pharmacokinetic properties” (Bioorg Med Chem Lett, 2015).
